# According to ChEMBL document CHEMBL4428099, “Identification of indole scaffold-based dual inhibitors of NOD1 and NOD2” (Bioorg Med Chem, 2016):
# Organism: Homo sapiens
# Test: Selectivity ratio, ratio of IC50 for human NOD2 over-expressed in HEK-Blue cells to IC50 for human NOD1 over-expressed in HEK-Blue cells
# Assay type: cell-based
smiles,measurement,value
Cc1ccc(S(=O)(=O)n2c(N)nc3ccccc32)cc1,Ratio IC50,75
